pEC50: −log10 of the molar value.
Molecular target: μ-opioid receptor (Homo sapiens (Human), UniProt P35372)
Experiment: μ-opioid receptor [35S]GTPγS functional assay, HEK-293 cells
Conditions: for μ Emax (%): maximal effect relative to DAMGO, HEK-293 cells

`COc1ccc2c3c1O[C@H]1C4(OC)CC[C@@]5(C[C@]4(C)COCc4cc6ccccc6s4)[C@@H](C2)N(C)CC[C@]315` was tested, and the “μ Emax (%)” value was 87.5 ± 2.33%.

In the case of `COc1ccc2c3c1O[C@H]1C4(OC)CC[C@@]5(C[C@]4(C)COCc4ccoc4)[C@@H](C2)N(C)CC[C@]315`, the “μ Emax (%)” value was 93.5 ± 1.76% and the pEC50 (read-out: μ EC50, μ GTP EC50, membranes from HEK-293 cells) was 6.40.

Reference: patent publication US9988392B2, “7-beta-alkyl analogs of orvinols” (dated 2018)
